# CycPeptMPDB entries from one study

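The data file gives no further conditions (lipid, pH, time, direction or concentration), and values from different papers need not be comparable. The list need not hold all peptides of the study. Peptides that the database sets to -10, its floor, are left out.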

PAMPA is the parallel artificial membrane permeability assay, which has no cells and reads passive diffusion. Caco-2: transport across a human colon carcinoma cell monolayer. Permeability is given as log10 of P in cm/s; higher (less negative) is more permeable. Entries marked < or ≤ lay at or below the stated limit. "–" marks a cell with nothing listed here.

| compound | PAMPA (log10 cm/s) | Caco-2 (log10 cm/s) |
|---|---|---|
| CC(C)C[C@@H]1NC(=O)[C@H](C)N(C)C(=O)[C@H](Cc2ccccc2)NCCCCCCNC1=O | -4.70 | -4.84 |
| CC(C)C[C@@H]1NC(=O)[C@H](C)NC(=O)[C@H](Cc2ccccc2)NCCCCCCN(C)C1=O | -4.30 | -4.36 |
| CC(C)C[C@@H]1NC(=O)[C@H](C)NC(=O)[C@H](Cc2ccccc2)N(C)CCCCCCNC1=O | -5.20 | -4.38 |
| CC(C)C[C@@H]1NC(=O)[C@@H](Cc2ccc(O)cc2)NC(=O)CNCCCCCCNC1=O | < -8.20 | – |
| CC(C)C[C@@H]1NC(=O)[C@H](C)NC(=O)[C@H](Cc2ccccc2)NCCCCNC1=O | -4.70 | -5.19 |
| CC(C)C[C@H]1C(=O)NCCCCCCN[C@@H](Cc2ccccc2)C(=O)N[C@H](C)C(=O)N1C | -4.60 | -4.41 |
| CC(C)C[C@@H]1NC(=O)[C@H](C)NC(=O)CN(Cc2ccccc2)CCCCCCNC1=O | -4.40 | -4.13 |
| CC(C)C[C@@H]1NC(=O)[C@H](C)NC(=O)[C@H](Cc2ccccc2)NCCCCCCCCNC1=O | -4.70 | -4.22 |
| CC(C)C[C@@H]1NC(=O)[C@@H](C)N(C)C(=O)[C@H](Cc2ccccc2)NCCCCCCN(C)C1=O | -4.60 | -4.40 |
| CC(C)C[C@@H]1C(=O)NCCCCCCN[C@@H](Cc2ccccc2)C(=O)N[C@@H](C)C(=O)N1C | -4.60 | -3.46 |
| CC(C)C[C@@H]1NCCCCCCNC(=O)[C@H](Cc2ccccc2)NC(=O)[C@H](C)NC1=O | -4.50 | -4.92 |
| CC(C)C[C@@H]1NC(=O)[C@@H](C)NC(=O)[C@H](Cc2ccccc2)NCCCCCCN(C)C1=O | -4.60 | -5.11 |
| CC(C)C[C@@H]1NC(=O)CN(C)C(=O)[C@H](Cc2ccccc2)NCCCCCCNC1=O | -4.70 | -5.64 |
| CC(C)C[C@@H]1NC(=O)[C@H](C)NC(=O)[C@H](Cc2ccccc2)NCCCCCCCNC1=O | -4.60 | -4.16 |
| CC(C)[C@@H]1NC(=O)[C@@H](CO)NC(=O)[C@@H](C)NCCCCCCNC1=O | -6.30 | – |
| C[C@H]1NCCCCCCNC(=O)[C@H](Cc2ccc(O)cc2)NC(=O)[C@@H]2CCCN2C1=O | < -7.80 | – |
| CC(C)C[C@@H]1NC(=O)[C@H](C)NC(=O)[C@H](Cc2ccccc2)NCCCCCCCCCNC1=O | -4.50 | -4.08 |
| CC(C)C[C@H]1C(=O)NCCCCCCN[C@@H](Cc2ccccc2)C(=O)N(C)[C@H](C)C(=O)N1C | -4.60 | -3.68 |
| CC(C)C[C@H]1NC(=O)[C@H](C)NC(=O)[C@H](Cc2ccccc2)NCCCCCCN(C)C1=O | -4.70 | -3.72 |
| CC(C)C[C@H]1C(=O)N(C)CCCCCCN[C@@H](Cc2ccccc2)C(=O)N(C)[C@H](C)C(=O)N1C | -4.50 | -3.70 |
| CC(C)C[C@H]1C(=O)N(C)CCCCCCN[C@@H](Cc2ccccc2)C(=O)N[C@H](C)C(=O)N1C | -4.50 | -4.20 |
| CC(=O)N1CCCCCCNC(=O)[C@H](CC(C)C)NC(=O)[C@H](C)NC(=O)[C@@H]1Cc1ccccc1 | -5.10 | -4.93 |

Excerpt, the opening 3 entries:

{"smiles": "CC(C)C[C@@H]1NC(=O)[C@H](C)N(C)C(=O)[C@H](Cc2ccccc2)NCCCCCCNC1=O", "PAMPA (log10 cm/s)": "-4.70", "Caco-2 (log10 cm/s)": "-4.84"}
{"smiles": "CC(C)C[C@@H]1NC(=O)[C@H](C)NC(=O)[C@H](Cc2ccccc2)NCCCCCCN(C)C1=O", "PAMPA (log10 cm/s)": "-4.30", "Caco-2 (log10 cm/s)": "-4.36"}
{"smiles": "CC(C)C[C@@H]1NC(=O)[C@H](C)NC(=O)[C@H](Cc2ccccc2)N(C)CCCCCCNC1=O", "PAMPA (log10 cm/s)": "-5.20", "Caco-2 (log10 cm/s)": "-4.38"}

Collected by the curators of CycPeptMPDB (Li et al. 2023) from Le Roux et al. 2020, doi:10.1021/acs.jmedchem.0c00013.